Common to all, as to format: cell-based
For one assay, the target named is T1, human GluN2A (Homo sapiens, UniProt Q05586+Q12879).
T1 construct: host or cells: HEK293, tetracycline-induced
The experiment in a line: Ca2+ fluorescence (fluo-8) assay in HEK cells expressing GluN2A. Conditions: inhibition of Ca2+ response, glutamate and glycine 3 μM each, read-out: GluN2A IC50 (nM) ± SEM (n). The protocol: HEK293 cells expressing the human GRIN1/GRIN2A genes (Chantest Catalog #: CT6120) were grown as an adherent monolayer at 37°C, 5% CO2 in DMEM/Ham’s F12 + 10% tetracycline-screened FBS (Hyclone SH3007.03T) and 500 μg/ml G418. […] To prepare the cells for an experiment, they were rinsed with Dulbecco’s PBS (Ca^2+ and Mg^2+ free) and detached from the flask with TrypLE™ Express (Life Technologies, Carlsbad, CA) using the manufacturer’s recommended methods. Cells collected from the flask were washed twice in Ca^2+/Mg^2+-free Hanks Balanced Salt Solution + 20 mM HEPES (HBSS), and counted and assessed for viability with trypan blue. Washed cells were then dye-loaded by resuspending in Fluo-8/AM calcium sensitive dye plus Component B (AAT Bioquest, Sunnyvale, CA) diluted in HBSS. […]
To initiate an assay, 10 μl of test compound or buffer was added to each well of the cell plate and pre-incubated for 10 minutes in the dark. After 10 minutes, the cell plate was placed in a FDSS 6000 plate reader (Hamamatsu Photonics, Middlesex, NJ); baseline fluorescence readings were collected for 20 seconds. Next, 25 μl of agonist solution (3 μM glutamate, 3 μM glycine, and 1 mM Ca^2+ in HBSS) was added and the change in fluorescence was recorded for 3 minutes.
Results were calculated by computing the ratio of maximum fluorescence achieved during agonist-addition phase vs. baseline fluorescence.

Sequences of proteins named here, by UniProt entry; tags and fusion partners are left off. Residues count along the entry.
UniProt Q12879, 23-1464: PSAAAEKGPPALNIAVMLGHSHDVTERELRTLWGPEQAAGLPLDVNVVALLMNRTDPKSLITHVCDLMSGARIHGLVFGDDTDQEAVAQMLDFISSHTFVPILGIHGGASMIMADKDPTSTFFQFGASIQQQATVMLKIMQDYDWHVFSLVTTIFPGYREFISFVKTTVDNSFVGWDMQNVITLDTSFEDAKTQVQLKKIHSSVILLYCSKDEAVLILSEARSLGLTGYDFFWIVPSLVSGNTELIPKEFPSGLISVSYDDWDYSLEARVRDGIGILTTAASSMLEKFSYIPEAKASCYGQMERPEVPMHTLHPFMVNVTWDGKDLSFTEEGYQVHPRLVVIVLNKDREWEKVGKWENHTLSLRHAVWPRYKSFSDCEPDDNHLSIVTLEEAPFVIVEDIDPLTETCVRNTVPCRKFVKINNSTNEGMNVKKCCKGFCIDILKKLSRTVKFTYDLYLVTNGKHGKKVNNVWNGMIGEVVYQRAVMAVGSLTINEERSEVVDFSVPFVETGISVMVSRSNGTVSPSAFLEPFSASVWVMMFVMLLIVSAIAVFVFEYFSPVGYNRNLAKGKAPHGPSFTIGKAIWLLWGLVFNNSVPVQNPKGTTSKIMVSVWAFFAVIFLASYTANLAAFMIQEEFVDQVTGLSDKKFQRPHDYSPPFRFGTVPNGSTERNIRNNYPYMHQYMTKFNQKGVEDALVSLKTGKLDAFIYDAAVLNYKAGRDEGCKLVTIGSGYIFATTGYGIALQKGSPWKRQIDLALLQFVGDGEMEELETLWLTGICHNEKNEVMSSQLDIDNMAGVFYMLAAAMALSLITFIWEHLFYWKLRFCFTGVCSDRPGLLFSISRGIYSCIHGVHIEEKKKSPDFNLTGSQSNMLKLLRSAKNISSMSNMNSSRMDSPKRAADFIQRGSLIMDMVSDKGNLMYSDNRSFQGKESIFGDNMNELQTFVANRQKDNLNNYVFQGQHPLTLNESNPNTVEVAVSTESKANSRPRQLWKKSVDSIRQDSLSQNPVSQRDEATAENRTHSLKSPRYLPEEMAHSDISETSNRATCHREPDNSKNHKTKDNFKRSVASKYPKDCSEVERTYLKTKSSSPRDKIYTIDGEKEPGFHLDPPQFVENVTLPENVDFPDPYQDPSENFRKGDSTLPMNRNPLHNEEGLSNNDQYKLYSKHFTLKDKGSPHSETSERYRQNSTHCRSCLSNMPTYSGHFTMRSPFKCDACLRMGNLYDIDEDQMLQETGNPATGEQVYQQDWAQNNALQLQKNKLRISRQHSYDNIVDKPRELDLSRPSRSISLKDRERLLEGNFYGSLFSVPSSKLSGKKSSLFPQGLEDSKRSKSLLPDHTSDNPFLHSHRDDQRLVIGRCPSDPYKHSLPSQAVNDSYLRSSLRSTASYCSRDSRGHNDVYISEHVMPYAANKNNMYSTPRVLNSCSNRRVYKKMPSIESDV
UniProt Q13224, 27-1484: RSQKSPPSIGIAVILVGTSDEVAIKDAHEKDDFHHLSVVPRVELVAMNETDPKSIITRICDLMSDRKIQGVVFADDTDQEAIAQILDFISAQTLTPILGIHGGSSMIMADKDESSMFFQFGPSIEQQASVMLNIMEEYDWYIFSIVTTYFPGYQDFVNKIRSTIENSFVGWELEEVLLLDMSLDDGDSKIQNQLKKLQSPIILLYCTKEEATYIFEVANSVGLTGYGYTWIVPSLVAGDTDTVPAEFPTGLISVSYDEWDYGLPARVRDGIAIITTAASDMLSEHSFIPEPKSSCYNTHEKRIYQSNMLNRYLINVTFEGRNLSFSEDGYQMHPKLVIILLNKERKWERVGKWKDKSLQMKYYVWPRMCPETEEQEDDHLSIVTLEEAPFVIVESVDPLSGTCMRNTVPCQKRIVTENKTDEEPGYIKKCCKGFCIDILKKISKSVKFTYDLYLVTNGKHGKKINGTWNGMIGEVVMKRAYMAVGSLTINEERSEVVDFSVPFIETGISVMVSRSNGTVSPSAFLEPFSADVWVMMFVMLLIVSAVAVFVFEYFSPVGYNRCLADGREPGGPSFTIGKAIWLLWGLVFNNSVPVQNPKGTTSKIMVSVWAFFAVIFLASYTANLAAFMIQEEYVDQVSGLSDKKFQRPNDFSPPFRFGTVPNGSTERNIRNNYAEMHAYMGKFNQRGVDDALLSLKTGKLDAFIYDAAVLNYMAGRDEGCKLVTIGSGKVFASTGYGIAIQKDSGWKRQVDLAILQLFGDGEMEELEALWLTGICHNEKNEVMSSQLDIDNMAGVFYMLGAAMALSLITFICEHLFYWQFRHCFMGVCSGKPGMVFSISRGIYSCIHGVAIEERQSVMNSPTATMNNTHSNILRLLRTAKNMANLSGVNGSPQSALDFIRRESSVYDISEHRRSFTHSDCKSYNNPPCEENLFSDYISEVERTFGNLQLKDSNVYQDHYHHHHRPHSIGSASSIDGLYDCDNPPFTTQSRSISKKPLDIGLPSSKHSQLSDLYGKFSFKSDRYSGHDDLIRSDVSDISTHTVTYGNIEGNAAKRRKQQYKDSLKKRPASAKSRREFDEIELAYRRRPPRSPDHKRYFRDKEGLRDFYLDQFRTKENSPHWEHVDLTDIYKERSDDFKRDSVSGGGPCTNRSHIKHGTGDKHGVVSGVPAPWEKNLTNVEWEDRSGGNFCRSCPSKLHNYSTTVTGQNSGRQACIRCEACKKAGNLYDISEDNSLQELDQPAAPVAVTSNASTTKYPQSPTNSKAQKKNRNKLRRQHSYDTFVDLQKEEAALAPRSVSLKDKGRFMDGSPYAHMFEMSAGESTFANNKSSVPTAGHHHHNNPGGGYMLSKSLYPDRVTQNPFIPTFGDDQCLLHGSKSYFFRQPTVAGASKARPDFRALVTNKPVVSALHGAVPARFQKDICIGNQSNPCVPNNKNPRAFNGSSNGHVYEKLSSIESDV
UniProt O15399, 28-1336: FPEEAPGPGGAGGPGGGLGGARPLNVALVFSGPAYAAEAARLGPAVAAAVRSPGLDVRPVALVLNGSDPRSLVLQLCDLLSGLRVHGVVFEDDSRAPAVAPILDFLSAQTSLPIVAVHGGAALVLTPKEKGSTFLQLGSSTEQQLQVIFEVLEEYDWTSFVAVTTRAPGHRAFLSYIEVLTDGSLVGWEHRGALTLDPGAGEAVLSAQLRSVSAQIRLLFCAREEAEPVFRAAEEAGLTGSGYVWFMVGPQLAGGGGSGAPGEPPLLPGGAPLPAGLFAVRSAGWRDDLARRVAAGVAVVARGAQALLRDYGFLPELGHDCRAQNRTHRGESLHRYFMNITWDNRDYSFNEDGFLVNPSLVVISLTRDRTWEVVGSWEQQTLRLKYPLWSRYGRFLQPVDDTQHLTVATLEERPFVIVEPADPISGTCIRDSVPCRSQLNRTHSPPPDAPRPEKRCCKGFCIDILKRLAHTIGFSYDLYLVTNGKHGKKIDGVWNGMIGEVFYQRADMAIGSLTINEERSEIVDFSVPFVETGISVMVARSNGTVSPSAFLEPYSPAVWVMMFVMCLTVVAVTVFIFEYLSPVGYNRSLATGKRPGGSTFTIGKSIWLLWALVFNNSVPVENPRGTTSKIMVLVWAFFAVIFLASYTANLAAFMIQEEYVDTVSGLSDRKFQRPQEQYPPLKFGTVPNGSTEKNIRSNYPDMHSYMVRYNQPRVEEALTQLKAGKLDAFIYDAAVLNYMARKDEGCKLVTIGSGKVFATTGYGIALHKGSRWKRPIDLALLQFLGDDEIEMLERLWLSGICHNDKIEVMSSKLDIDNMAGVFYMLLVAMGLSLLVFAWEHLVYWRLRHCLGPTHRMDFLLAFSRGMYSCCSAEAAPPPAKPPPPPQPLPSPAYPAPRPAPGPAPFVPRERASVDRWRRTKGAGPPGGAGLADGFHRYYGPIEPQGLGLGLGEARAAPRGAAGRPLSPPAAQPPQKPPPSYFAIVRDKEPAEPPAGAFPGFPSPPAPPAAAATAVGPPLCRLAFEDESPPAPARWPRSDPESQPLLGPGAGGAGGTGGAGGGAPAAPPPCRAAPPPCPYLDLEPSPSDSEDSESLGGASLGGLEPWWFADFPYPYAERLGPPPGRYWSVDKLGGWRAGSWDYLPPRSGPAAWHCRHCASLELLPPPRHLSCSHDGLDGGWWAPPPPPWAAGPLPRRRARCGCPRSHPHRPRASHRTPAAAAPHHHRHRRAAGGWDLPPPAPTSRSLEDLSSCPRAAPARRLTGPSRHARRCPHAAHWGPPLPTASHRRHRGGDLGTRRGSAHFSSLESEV

The target of a further assay is T2, human GluN2B (Homo sapiens, UniProt Q05586+Q13224).
T2 construct: expressed in transfected cells; host or cells: HEK cells
The experiment in a line: Ca2+ fluorescence (fluo-8) assay in HEK cells expressing GluN2B. The note with it: inhibition of Ca2+ response, glutamate and glycine 3 μM each, read-out: GluN2B IC50 (nM) ± SEM (n).

The next assay deals with T3, human GluN2D (Homo sapiens, UniProt O15399+Q05586).
T3 construct: expressed in transfected cells; host or cells: HEK cells
The experiment in a line: Ca2+ fluorescence (fluo-8) assay in HEK cells expressing GluN2D. The note with it: inhibition of Ca2+ response, glutamate and glycine 3 μM each, read-out: GluN2D IC50 (nM) ± SEM (n).

As for Ro 25–6981, the IC50 (usually the concentration at which inhibition is half-maximal) at human GluN2A is > 10000 nM; on human GluN2B it was 20 ± 1 nM; on human GluN2D, > 10000 nM.
